Laboratory results: patent publication US7008911B2, “Non-surfactant solubilizing agent” (Ecolab, Inc., priority 2002, dated 2006)

How the values were obtained:
[1] = Alcohol amine added to aqueous EPh solution until single phase observed; assay type: physicochemical; settings: for amount added until a single phase solution was observed: 100 grams total, room temperature
[2] = Alcohol amine added to aqueous PPh solution until single phase observed; assay type: physicochemical; settings: aqueous PPh (34-37 wt % PPh, 39-42 wt % water), room temperature, Formulations B-E

With OCCN(CCO)CCO the “amount added until a single phase solution was observed” value ([1]; 1 % Eph in H2O) was 4 Grams, the “amount added until a single phase solution was observed” value ([1]; 2.5 % Eph in H2O) was 14 Grams and the “amount added until a single phase solution was observed” value ([1]; 5 % Eph in H2O) was 28.9 Grams. The “amount added until a single phase solution was observed” value ([1]; 10 % Eph in H2O) was 42 Grams, the “amount added until a single phase solution was observed” value ([1]; 15 % Eph in H2O) was 47.8 Grams and the “amount added until a single phase solution was observed” value ([1]; 20 % Eph in H2O) was 47.9 Grams. For the same compound, the “amount added until a single phase solution was observed” value ([1]; 30 % Eph in H2O) was 45.1 Grams, the “amount added until a single phase solution was observed” value ([1]; 50 % Eph in H2O) was 37.1 Grams and the “amount added until a single phase solution was observed” value ([1]; 75 % Eph in H2O) was 28.5 Grams. For the same compound, the “alcohol amine at single phase, normalized to 100 weight % of water, alcohol amine and EPh” value ([1]; listed as of Table 4 with 1 % Eph in H2O, Eph 1 wt % normalized) was 4 wt %, the “alcohol amine at single phase, normalized to 100 weight % of water, alcohol amine and EPh” value ([1]; listed as of Table 4 with 2.5 % Eph in H2O, Eph 2 wt % normalized) was 12 wt % and the “alcohol amine at single phase, normalized to 100 weight % of water, alcohol amine and EPh” value ([1]; listed as of Table 4 with 5 % Eph in H2O, Eph 4 wt % normalized) was 22 wt %. For the same compound, the “alcohol amine at single phase, normalized to 100 weight % of water, alcohol amine and EPh” value ([1]; listed as of Table 4 with 10 % Eph in H2O, Eph 7-8 wt % normalized) was 30 wt %, the “alcohol amine at single phase, normalized to 100 weight % of water, alcohol amine and EPh” value ([1]; listed as of Table 4 with 15 % Eph in H2O, Eph 10-12 wt % normalized) was 32 wt % and the “alcohol amine at single phase, normalized to 100 weight % of water, alcohol amine and EPh” value ([1]; listed as of Table 4 with 20 % Eph in H2O, Eph 14-15 wt % normalized) was 32 wt %. For the same compound, the “alcohol amine at single phase, normalized to 100 weight % of water, alcohol amine and EPh” value ([1]; listed as of Table 4 with 30 % Eph in H2O, Eph 21-23 wt % normalized) was 31 wt %, the “alcohol amine at single phase, normalized to 100 weight % of water, alcohol amine and EPh” value ([1]; listed as of Table 4 with 50 % Eph in H2O, Eph 36-40 wt % normalized) was 28 wt % and the “alcohol amine at single phase, normalized on total weight %” value [2] was 27 wt %.
